{"source": "patent US7056954B2", "about": "“Means for the modulation of processes mediated by retinoid receptors and compounds useful therefor” (The Salk Institute for Biological Studies, priority 1991, dated 2006)", "target": "CRABP", "conditions": "Table 2"}
{"smiles": "CC1=C(/C=C/C(C)=C\\C=C\\C(C)=C\\C(=O)O)C(C)(C)CCC1", "values": [{"measurement": "Kd", "value": "> 100", "unit": "nM"}]}
